Molecular target: Tyrosine-protein kinase BTK (Homo sapiens, UniProt Q06187)

By UniProt entry, the sequences of proteins in these tests, tags left out. Where a name states a change or a piece, a line headed by the entry shows the natural chain unless it says otherwise.
UniProt Q06187: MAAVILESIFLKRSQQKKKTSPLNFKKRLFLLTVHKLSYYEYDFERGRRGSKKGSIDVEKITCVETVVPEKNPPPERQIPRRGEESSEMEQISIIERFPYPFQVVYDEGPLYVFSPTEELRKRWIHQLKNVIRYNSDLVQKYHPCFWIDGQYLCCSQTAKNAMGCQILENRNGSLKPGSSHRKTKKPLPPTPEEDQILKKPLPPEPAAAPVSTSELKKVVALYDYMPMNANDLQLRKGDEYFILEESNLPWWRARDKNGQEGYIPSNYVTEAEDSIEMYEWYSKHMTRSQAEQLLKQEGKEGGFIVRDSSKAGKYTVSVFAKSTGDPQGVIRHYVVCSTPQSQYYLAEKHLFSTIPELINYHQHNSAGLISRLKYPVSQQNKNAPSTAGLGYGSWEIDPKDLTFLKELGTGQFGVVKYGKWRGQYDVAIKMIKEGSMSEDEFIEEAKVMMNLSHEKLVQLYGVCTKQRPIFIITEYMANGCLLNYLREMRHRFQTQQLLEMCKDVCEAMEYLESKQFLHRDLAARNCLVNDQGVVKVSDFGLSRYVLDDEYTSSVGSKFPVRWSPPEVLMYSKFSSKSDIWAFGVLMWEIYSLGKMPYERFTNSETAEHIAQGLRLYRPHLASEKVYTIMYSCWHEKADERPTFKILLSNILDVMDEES

C=CC(=O)Nc1cccc(Nc2nc(Nc3ccc(OCCOC)cc3)ncc2F)c1 [SPEBRUTINIB]
IC50: 0.5 nM

Source: ChEMBL document CHEMBL5241065, “If small molecules immunotherapy comes, can the prime be far behind?” (Eur J Med Chem, 2021)
